The record followed here is PMC6130943, “Cytochrome P450 and O-methyltransferase catalyze the final steps in the biosynthesis of the anti-addictive alkaloid ibogaine from Tabernanthe iboga” (The Journal of Biological Chemistry, 2018).

This data set has as its system [H][C@@]12C[C@H](CC)[C@]3([H])N(CCc4c([nH]c5ccccc45)[C@]3([H])C1)C2. The data set can be described thus: cells, lysate or membranes. To be noted: NADPH, HEPES, pH 8 (relative-rate assays adjusted to optimum), 30 °C, 25 min, Artemisia annua P450 reductase co-expressed.

Regarding “I10H (ibogamine-10-hydroxylase; P450 candidate 3) (Tabernanthe iboga)”, the Km came to 11.4 ± 1.87 µM.
